The text below walks through data of PubChem BioAssay AID588850 (Sanford-Burnham Center for Chemical Genomics, 2011).

The structures appear in SMILES notation. The list shows a part of the results, in another mix than the full data. Calls of active or inactive are those of the source.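 How the source made its calls: active means at least 50% inhibition at 5 µM, scaled per plate between neutral and stimulator controls; inactive means the rest.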

The inhibition is the drop in the measured response relative to a control, in per cent.

This assay is described as follows: inhibitors of PAF-induced NF-kB signaling, primary screen, cell-based, GFP fluorescence, uHTS (AID 588850).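 Further: PAF is a Pseudomonas aeruginosa culture filtrate used as stimulus; plate controls were PAF-stimulated DMSO wells for no effect and unstimulated DMSO wells for full effect.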 The conditions noted are these: KKLEB NF-kB-GFP reporter, GFP fluorescence overnight, at 5 µM, stronger effect = higher value.
Regarding `CC(C)(C)C(=O)NC(Sc1ncccn1)C(Cl)(Cl)Cl` (configuration not stated), the inhibition was inactive: -16.6%.

With `O=P1(N(CCCl)CCCl)NCCC(C(F)(F)F)O1` (configuration not stated), the inhibition was inactive: 14.2%.

Regarding `Clc1n[nH]nc1-c1nn[nH][15n]1`, the inhibition is inactive: -5.8%.

On to `CCOP(=O)(Nc1ccc(C)cn1)OCC`, for which the inhibition was inactive: 8.8%.

In the case of `CN(CCCl)Cc1cc(Cl)c(NC2=NCCN2)c(Cl)c1`, the inhibition was inactive: -8.5%.

As for `CCOP(=O)(NC(=NC(C)c1ccccc1)NC(C)c1ccccc1)OCC` (configuration not stated), the inhibition was inactive: 2.6%.

Consider `O=P1(Nc2ccccn2)COc2ccccc2OC1`, for which the inhibition is inactive: 5%.

`CCC1=CC2Cc3nc4ccc(Cl)cc4c(N)c3C(C1)C2` (configuration not stated): the inhibition is inactive: 30.8%.

Turning to `CC1(CBr)Cn2c(nc3ccccc3c2=O)S1` (configuration not stated), the inhibition was inactive: 6.3%.

Consider `CC(C)/C=N\N=C(\N)N[N+](=O)[O-]`, for which the inhibition is inactive: 1.4%.

Regarding `CN(C(=O)Cc1ccc(Cl)c(Cl)c1)[C@@H]1CCCC[C@H]1N1CCCC1`, the inhibition was inactive: 6.8%.

For the molecule `COc1ccccc1CNC(=O)COC(=O)C(O)(c1ccccc1)c1ccccc1`, the inhibition was inactive: 14.8%.

In the case of `CCCC1OP(=O)(Nc2ccccc2)OCC1CC` (configuration not stated), the inhibition is inactive: -4.8%.

Take `O=C(/C=C/c1ccccc1)OC1CN2CCC1CC2` (configuration not stated): the inhibition was inactive: 7.8%.

Consider `CN(C)C1(CNC(=O)c2ccc(S(C)(=O)=O)cc2)CCCCC1`, for which the inhibition was inactive: -0.5%.

Consider `CC1CCC(C(C)C)C(OP(=O)(Nc2ccccn2)c2ccccc2)C1` (configuration not stated), for which the inhibition is inactive: 7.4%.

`Cc1ccc(C(=O)OC2CN3CCC2CC3)cc1` (configuration not stated): the inhibition is inactive: -3.1%.

As to `Cc1nn(-c2ccccc2)c2c1P(=O)(N1CCOCC1)N(C)C(c1ccccc1)=N2` (configuration not stated), the inhibition was inactive: 11.2%.

Consider `O=[As](O)(c1cccs1)c1cccs1`, for which the inhibition is inactive: -25.6%.

Consider `Cc1ccc(OCC(=O)OC2CN3CCC2CC3)cc1` (configuration not stated), for which the inhibition is inactive: -3.6%.

Turning to `O=P1(Nc2ccc(Br)cn2)COc2ccccc2OC1`, the inhibition is inactive: -17.9%.

For `NS(=O)(=O)c1cccc(NC(=O)COC(=O)C(O)(c2ccccc2)c2ccccc2)c1`, the inhibition was inactive: 13.5%.

For the molecule `Nc1cccc([As](=O)(O)c2ccccc2)c1`, the inhibition was inactive: 2.3%.

Regarding `O=P1(Nc2ncccn2)COc2ccccc2OC1`, the inhibition was inactive: 14.3%.

`Cc1ccc(S(=O)(=O)N(CCCN)CCCc2c(C)nc(N)[nH]c2=O)cc1`: the inhibition is inactive: -17.2%.

Turning to `Nc1ccccc1[As](=O)(O)c1ccccc1`, the inhibition was inactive: 13.8%.

For `O=C(O)COc1ccc([As](=O)(O)O)cc1[N+](=O)[O-]`, the inhibition is inactive: -1.2%.

For the molecule `CS(=O)(=O)c1cc([N+](=O)[O-])c2no[n+]([O-])c2c1`, the inhibition was inactive: -22.2%.

For the molecule `O=P(Nc1nccs1)(Oc1ccccc1)Oc1ccccc1`, the inhibition was inactive: 5%.

Take `O=P(Nc1nccs1)(c1ccccc1)c1nc2ccccc2s1` (configuration not stated): the inhibition is inactive: 7.5%.

As for `CCOP1(=S)c2c(C)nn(CCC#N)c2N=C(c2ccccc2F)N1C` (configuration not stated), the inhibition is inactive: 15.5%.

Turning to `CN(C(=O)Cc1ccc(Cl)c(Cl)c1)[C@H]1CC[C@@]2(CCCO2)C[C@@H]1N1CCCC1`, the inhibition was inactive: -1.7%.

On to `O=[N+]([O-])c1ccc2c(c1)nnn2O`, for which the inhibition was inactive: -4.1%.

Regarding `CN(C)C(=O)c1cc([N+](=O)[O-])cc2c1-c1c(cc([N+](=O)[O-])cc1[N+](=O)[O-])C2=O`, the inhibition was active: 52.7%.

`CN(C(=O)Cc1ccccc1)[C@@H]1CC[C@]2(CCCO2)C[C@H]1N1CCCC1`: the inhibition is inactive: 10.5%.

Take `CCOP1(=S)c2c(C)nn(CCC#N)c2N=C(c2ccc(F)cc2)N1C` (configuration not stated): the inhibition was inactive: 24.9%.

`N#CCCN(C(=O)COC(=O)C(O)(c1ccccc1)c1ccccc1)c1ccc(F)cc1`: the inhibition was inactive: -0.2%.

Regarding `NC(=O)Nc1ccc([As](=O)(O)O)cc1`, the inhibition was inactive: -19.3%.

As for `Cc1cccc(OCC(=O)OC2CN3CCC2CC3)c1` (configuration not stated), the inhibition is inactive: 2.6%.

Consider `O=[As](O)(c1cccc(O)c1)c1cccc(O)c1`, for which the inhibition was inactive: 5.3%.

For the molecule `CS(=O)(=O)c1ccc(Cl)c(NC(=O)COC(=O)C(O)(c2ccccc2)c2ccccc2)c1`, the inhibition is inactive: -10.6%.

For `O=[As](O)(O)c1cccnc1`, the inhibition was inactive: -0.9%.

For `COc1cc(C(=O)NCC2(N3CCOCC3)CCCCC2)cc(Cl)c1OC(C)C`, the inhibition was inactive: -17.6%.

Consider `O=C(OC1CN2CCC1CC2)c1ccc(Cl)cc1` (configuration not stated), for which the inhibition is inactive: -7.1%.

With `CCOP(=O)(Nc1cccc2ccccc12)OCC`, the inhibition was inactive: -0.1%.

For `COc1cc(C2NCCC3(OCCO3)C2(C)C)cc(OC)c1OC` (configuration not stated), the inhibition was inactive: -1.1%.

As to `CCCOP(=S)(Nc1nc(N)cc(=O)[nH]1)OCCC`, the inhibition is inactive: 8.7%.

Turning to `Nc1cccc2c([As](=O)(O)O)cccc12`, the inhibition was inactive: 5.4%.

For the molecule `Cc1ccc(NCCc2c([N+](=O)[O-])cc([N+](=O)[O-])cc2[N+](=O)[O-])cc1`, the inhibition was inactive: -5.4%.

Take `COc1cc(I)ccc1[As](=O)(O)O`: the inhibition was inactive: 3%.

As to `COc1ccc2nc(NP(=O)(c3ccccc3)c3ccccc3)sc2c1`, the inhibition was inactive: -32.1%.

As for `O=P1(N(CCCl)CCCl)Nc2ccccc2N1`, the inhibition was inactive: -21.2%.

For the molecule `O=P1(N(CCCl)CCCl)OCCCN1CCCl` (configuration not stated), the inhibition is inactive: -7.6%.

Consider `Cc1cc(=O)[nH]c(N[N+](=O)[O-])n1`, for which the inhibition is inactive: 12.3%.

Turning to `O=C(OC1CN2CCC1CC2)C12CC3CC(CC(C3)C1)C2` (configuration not stated), the inhibition was inactive: 12.3%.

As to `Cc1c2c(nc3ccccc13)SC(C(Cl)Cl)C2` (configuration not stated), the inhibition is inactive: 8.4%.

As to `COc1ccc(N/C(=N/P(=O)(N2CCOCC2)N2CCOCC2)N2CCOCC2)cc1`, the inhibition was inactive: 6%.

`O=[N+]([O-])c1cc(Oc2ccc([N+](=O)[O-])cc2C(F)(F)F)cc([N+](=O)[O-])c1`: the inhibition is inactive: -14.8%.

On to `Cc1ccc2nc3c(c(C)c2c1)CC(C(Cl)Cl)S3` (configuration not stated), for which the inhibition was inactive: -1.9%.

For the molecule `Cc1ccc(OP(=O)(Nc2ccc([N+](=O)[O-])cn2)Oc2ccc(C)cc2)cc1`, the inhibition was inactive: 12.5%.

In the case of `O=[N+]([O-])c1ccc(-c2cc([N+](=O)[O-])c(O)c([N+](=O)[O-])c2)cc1`, the inhibition is inactive: 6.5%.

With `COc1cc(C(=O)NCC2(N3CCOCC3)CCCCC2)ccc1OCC(C)C`, the inhibition is inactive: 17.9%.

Consider `C[As](=O)(O)c1cccc(C(=O)O)c1`, for which the inhibition was inactive: 8.9%.

For the molecule `O=[As](O)(c1ccc(O)cc1)c1ccccc1O`, the inhibition was inactive: 3.5%.

On to `O=[N+]([O-])c1cc([N+](=O)[O-])c(-c2ccn[nH]2)s1`, for which the inhibition is inactive: 18.2%.

Consider `CC(C)NC(=O)NP(=O)(Oc1ccccc1)Oc1ccccc1`, for which the inhibition is inactive: -3.9%.

In the case of `O=C(OC1CN2CCC1CC2)c1cccc2[nH]cnc12` (configuration not stated), the inhibition was inactive: 9.8%.

For `CCN(CC)C(=S)SC(NC=O)C(Cl)(Cl)Cl` (configuration not stated), the inhibition is inactive: 9%.

Regarding `COC(=O)C1(C)COP(=O)(N2CCCCCC2)OC1` (configuration not stated), the inhibition is inactive: -10.3%.

Take `CC(C)c1ccc(OP(=O)(Nc2ccccn2)Oc2ccccc2F)cc1` (configuration not stated): the inhibition is inactive: -4.7%.

As for `ClCCSc1nnc(-c2cccnc2)o1`, the inhibition is inactive: -23.2%.

Regarding `Cc1cc(SC(NC(=O)c2ccccc2)C(Cl)(Cl)Cl)nc(C(C)C)n1` (configuration not stated), the inhibition was inactive: -6%.

Turning to `CCCCOc1ccc(C(=O)NCC2(N3CCCCC3)CCCCC2)cc1OC`, the inhibition was inactive: -14.2%.

On to `COP(=O)(OC)N1CC1c1ccccc1` (configuration not stated), for which the inhibition is inactive: 20.6%.

As for `CC1CCNP(=O)(N(CCCl)CCCl)O1` (configuration not stated), the inhibition was inactive: -24.7%.

Consider `CCOC(=O)Nc1ccc([As](=O)(O)O)c(O)c1`, for which the inhibition is inactive: -19.2%.

For `O=C(O)C(O)c1ccc(N(CCCl)CCCl)cc1` (configuration not stated), the inhibition is inactive: 3.6%.

`O=[N+]([O-])c1ccc(Nc2ccc(Oc3ccc([N+](=O)[O-])cc3[N+](=O)[O-])cc2)c([N+](=O)[O-])c1`: the inhibition was inactive: 8.6%.

Take `O=P(Nc1ccccn1)(c1cccc2ccccc12)c1cccc2ccccc12`: the inhibition is inactive: 9.8%.

Turning to `Cc1cc(SC(NC=O)C(Cl)(Cl)Cl)ncn1` (configuration not stated), the inhibition is inactive: 12.2%.

`CCOC(=O)Nc1cccc([As](=O)(O)O)c1`: the inhibition was inactive: -13.5%.

In the case of `O=C(Nc1ccncc1[N+](=O)[O-])c1ccc([N+](=O)[O-])cc1[N+](=O)[O-]`, the inhibition was inactive: 30.6%.

With `O=C(COc1ccccc1)OC1CN2CCC1CC2` (configuration not stated), the inhibition is inactive: -10%.

Consider `O=C(O)C(=O)c1ccc(N(CCCl)CCCl)cc1`, for which the inhibition was inactive: -7.3%.

Consider `COC(=O)C1(C)COP(=O)(N2CCCC2)OC1` (configuration not stated), for which the inhibition is inactive: -4.2%.

As to `COP1(=S)c2c(C)nn(CCC#N)c2N=C(c2ccc(F)cc2)N1C` (configuration not stated), the inhibition is inactive: 15.9%.

`CCC(C)N(CC(C)C)C(=S)SC(NC(C)=O)C(Cl)(Cl)Cl` (configuration not stated): the inhibition was inactive: -11.4%.

With `CCOC(=O)c1ccc(NC(=O)C(C)(CCl)SC)cc1` (configuration not stated), the inhibition was inactive: 17.9%.

For the molecule `CSc1ccc(Nc2c([N+](=O)[O-])cc([N+](=O)[O-])cc2[N+](=O)[O-])cc1`, the inhibition is active: 58.6%.

For `O=C(OC1CN2CCC1CC2)c1cccc([N+](=O)[O-])c1` (configuration not stated), the inhibition was inactive: -7.4%.

Consider `O=[N+]([O-])c1cccc2n[nH]nc12`, for which the inhibition is inactive: -8.4%.

Consider `CC(=O)N1C2C3N(C(C)=O)C1C1N(C(C)=O)C(C(N1C(C)=O)N3C(C)=O)N2C(C)=O`, for which the inhibition is inactive: 0.6%.

`CCc1nc2c(n1)c1c(non1O)c1c2no[n+]1[O-]`: the inhibition was inactive: 41.6%.

Take `O=[N+]([O-])c1cc([N+](=O)[O-])c(CCNc2ccccc2)c([N+](=O)[O-])c1`: the inhibition was inactive: -16%.

For `Cc1ccc(NP(=O)(Oc2ccccc2)Oc2ccccc2)nc1`, the inhibition is inactive: 2.8%.

Regarding `COc1ccc(C2=NCC(CBr)S2)cc1` (configuration not stated), the inhibition was inactive: -3.2%.

On to `CN(C)C(=O)OCCc1n(C)cc[n+]1C`, for which the inhibition is inactive: 14.3%.

`CC(C)c1nc(Nc2ccccc2)n(P(=O)(N(C)C)N(C)C)n1`: the inhibition was inactive: -10.5%.

`CC(C)=N/N=C(\N)N[N+](=O)[O-]`: the inhibition is inactive: -9.8%.

On to `CC1CCN(C(=O)Oc2c(Cl)cc(Cl)c3cccnc23)CC1`, for which the inhibition was inactive: -1.7%.

With `c1cc(-c2nn[nH]n2)ccc1-c1nn[nH]n1`, the inhibition was inactive: -18.7%.

Take `C[N+]1=C2C=CC=CC=C2SC12C([N+](=O)[O-])=CC([N+](=O)[O-])=C[C-]2[N+](=O)[O-]` (configuration not stated): the inhibition was inactive: -17.9%.
